For the assay, the target named is T1, Human Aβ(1–42)-HiLyte^TM-Fluor555 (human, UniProt P05067 672-713, HiLyte^TM-Fluor555 dye covalently bound to ASP1 (NH2-terminus amino acid)).
T1 construct: Amyloid β peptide Aβ(1–42), human, cut product of the amyloid precursor protein; numbers count on: the Aβ peptide; source: bought: AnaSpec
The assay can be described thus: other fluorescence titration; competition: 10 nM Aβ(1–42) HiLyte-Fluor555 preincubated 15 min with rising His6, then 5 nM calbindin-D28k added; attenuation of the maximum fluorescence increase; 50 mM HEPES, 100 mM KCl, 50 µM CaCl2, pH 7.05, 24–25 °C. As to conditions: both partners purified.

The results in this text go back to PMC10609148 (Molecules, 2023).

B1: human recombinant calbindin-D28k (natural protein, UniProt P05937 1-261, looked up)
chain: MAESHLQSSLITASQFFEIWLHFDADGSGYLEGKELQNLIQELQQARKKAGLELSPEMKTFVDQYGQRDDGKIGIVELAHVLPTEENFLLLFRCQQLKSCEEFMKTWRKYDTDHSGFIETEELKNFLKDLLEKANKTVDDTKLAEYTDLMLKLFDSNNDGKLELTEMARLLPVQENFLLKFQGIKMCGKEFNKAFELYDQDGNGYIDENELDALLKDLCEKNKQDLDINNITTYKKNIMALSDGGKLYRTDLALILCAGDN
For B1, the binding result was “binds”.
